Measurements taken from paper PMC11988800, “A Comprehensive In Vitro and In Silico Approach for Targeting 4-Hydroxyphenyl Pyruvate Dioxygenase: Towards New Therapeutics for Alkaptonuria” (International Journal of Molecular Sciences, 2025).

Chains of the proteins cited; added tags and fusions are not shown. Lines headed by an entry give the natural chain unless they say otherwise; changes in a name come on top.
UniProt P32754: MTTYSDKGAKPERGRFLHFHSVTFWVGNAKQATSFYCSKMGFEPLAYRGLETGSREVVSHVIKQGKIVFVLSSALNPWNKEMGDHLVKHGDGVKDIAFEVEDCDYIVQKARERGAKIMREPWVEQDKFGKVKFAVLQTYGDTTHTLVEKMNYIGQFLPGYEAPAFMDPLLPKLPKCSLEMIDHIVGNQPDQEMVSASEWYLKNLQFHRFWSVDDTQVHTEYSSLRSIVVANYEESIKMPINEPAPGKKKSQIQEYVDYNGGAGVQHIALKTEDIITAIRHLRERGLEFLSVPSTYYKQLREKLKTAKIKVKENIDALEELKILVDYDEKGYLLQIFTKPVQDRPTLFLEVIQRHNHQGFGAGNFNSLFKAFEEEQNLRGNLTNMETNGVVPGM

Target: human 4-HPPD (Homo sapiens, UniProt P32754)
Experiment: Residence time evaluation by optimized jump dilution method in recombinant E. coli expressing human 4-HPPD

With `O=C1CCCC(=O)C1C(=O)c1ccc(C(F)(F)F)cc1[N+](=O)[O-]` [NTBC, Nitisinone] the koff was 0.000167 s⁻¹ and the residence time was 103 ± 15.2 min.
